Test results reported in patent US11753399B2, “Therapeutic compounds” (Gilead Sciences, Inc., priority 2018, dated 2023).

Experiment: Test B: Cytotoxicity Assay (same protocol as Test A, uninfected cells)
Assay type: cell-based
Settings: human, uninfected MT-4 cells, CellTiter-Glo
Description: MT-4 cells were next mixed with HIV-IIIb at a multiplicity of infection (m.o.i.) of 0.003 for 1 hour, after which time 35 μL of virus/cell mixture (2000 cells) was immediately added to each well containing 40 μL of diluted compound. The plates were then incubated at 37° C. for 5 days. After 5 days of incubation, 25 μl of 2× concentrated CellTiter-Glo Reagent (catalog #G7571, Promega Biosciences, Inc., Madison, Wis.) was added to each well containing MT-4 cells. Cell lysis was carried out by incubating at room temperature for 10 min and then chemiluminescence was read. […] Compound cytotoxicity and the corresponding CC50 values was determined using the same protocol as described in the antiviral assay (Test A) except that uninfected cells were used.

## Cn1nc(NS(C)(=O)=O)c2c(Cl)ccc(-c3ccc(C#CC(C)(C)S(=O)(=O)C4CC4)nc3[C@H](Cc3cc(F)cc(F)c3)NC(=O)Cn3nc(C(F)F)c4c3C(F)(F)[C@@H]3C[C@H]43)c21 [Example 4]
  CC50 at 5 days: > 44.1 µM
